Measured values reported in PubChem BioAssay AID1918969 (ICCB-Longwood Screening Facility, Harvard Medical School, 2023).
Several values for one entry are separate records, joined by “and”; a condition that tells them apart may be missing. Equal values may be shown once. The list shows a part of the results, in another mix than the full data. Activity calls are given as the source filed them. No stated cut-off is given here; in the data, active means inhibition above about 27% (passing the limit was not always enough); inactive means the rest.

test system: HCMV UL50-UL53 nuclear egress complex (human cytomegalovirus); experiment: inhibitors of HCMV UL50-UL53 interaction, biochemical, HTRF (AID 1918969); conditions: normalized percent inhibition, active compounds read high, concentration not given here

Structure (SMILES) | inhibition
CN(CCCl)CCCl | inactive: 21% and inactive: 2%
